Data reported in PMC10380083, “Synthesis of Prostate-Specific Membrane Antigen-Targeted Bimodal Conjugates of Cytotoxic Agents and Antiandrogens and Their Comparative Assessment with Monoconjugates” (International Journal of Molecular Sciences, 2023).

Experiments:
LNCaP cells = experiment: In vitro cytotoxicity, MTS assay, LNCaP; format: cell-based; settings: 72 h, high PSMA expression, range 0.5 to 800 nM, triplicates
Description: (§1) The resulting bimodal conjugates were tested in vitro on three different PCa cell lines. We used LNCaP cells with high PSMA expression, 22Rv1 cells with moderate PSMA expression and PC-3 cells with extremely low PSMA expression. Different levels of PSMA expression in 22Rv1 and LNCaP cell lines allows evaluation of the effect of the level of expression on the toxicity of the target drugs. PSMA-negative cell line PC-3 allows a qualitative assessment of non-specific toxicity of the obtained compounds.
(§2) The cytotoxicity of the investigated substances was tested using the MTS assay with some modifications. Cells were seeded in the 96-well plates (Corning, New York, NY, USA) at concentration of 7000 cells per well for PC-3 culture, 12,000 cells per well for LNCaP cells and 20,000 cells per well for 22Rv1 line. The cells were counted using the automatic cell counter EVE. All cell lines were purchased from the American Type Culture Collection (ATCC, Manassas, VA, USA). After 1 day, serial dilutions of tested substances were added to the cells. Cell culture medium with addition of DMSO in appropriate concentrations was used as a negative control. DMSO (30%) was added in culture medium as a positive control. Cells were then incubated during 72 h at 37 °C and 5% CO2. Later, the culture medium from each well was removed and 20 μL of MTS reagent (CellTiter 96 AQueous Non-Radioactive Cell Proliferation Assay, Promega) were added to each well with 100 μL of new culture medium. After 4 h incubation at 37 °C in darkness, the absorbance of the solution was measured at 490 nm wavelength using Thermo Scientific Multiskan GO spectrometer. Cell viability was calculated as a percentage compared to control cells. The absorbance of MTS reagent in culture medium without cells was taken as zero. […] Experiments were performed in triplicates. Data were analyzed using Prism 9—GraphPad version 9.2.0 software. p values < 0.05 were considered significant.

22Rv1 cells = experiment: In vitro cytotoxicity, MTS assay, 22Rv1; format: cell-based, human; settings: 72 h, moderate PSMA expression, range 0.5 to 800 nM, triplicates
Description: as §1, §2

PC-3 cells = experiment: In vitro cytotoxicity, MTS assay, PC-3; format: cell-based, human; settings: 72 h, extremely low PSMA expression, range 0.5 to 800 nM, triplicates
Description: as §1, §2

Structure (SMILES) | CC50, LNCaP (LNCaP cells) [nM] | CC50, 22Rv1 (22Rv1 cells) [nM] | CC50, PC-3 (PC-3 cells) [nM]
CC[C@H](C)[C@@H]([C@@H](CC(=O)N1CCC[C@H]1[C@H](OC)[C@@H](C)C(=O)N[C@H](C)[C@@H](O)c1ccccc1)OC)N(C)C(=O)[C@@H](NC(=O)[C@H](C(C)C)N(C)C(=O)OCc1ccc(NC(=O)[C@H](CCCNC(N)=O)NC(=O)[C@@H](NC(=O)CCCc2cn(CCCNC(=O)[C@H](CCCCNC(=O)CCC(=O)O[C@H]3CC[C@@]4(C)C(=CC[C@@H]5[C@@H]4CC[C@]4(C)C(c6cccnc6)=CC[C@@H]54)C3)NC(=O)[C@H](Cc3ccc(O)cc3)NC(=O)[C@H](Cc3ccccc3)NC(=O)CCC(=O)NCCCCCC(=O)N(CCCC[C@H](NC(=O)N[C@@H](CCC(=O)O)C(=O)O)C(=O)O)Cc3cccc(Cl)c3)nn2)C(C)C)cc1)C(C)C [13a] | 172.6 ± 2.9 | 155.8 ± 2.4 | >800
CC[C@H](C)[C@@H]([C@@H](CC(=O)N1CCC[C@H]1[C@H](OC)[C@@H](C)C(=O)N[C@H](C)[C@@H](O)c1ccccc1)OC)N(C)C(=O)[C@@H](NC(=O)[C@H](C(C)C)N(C)C(=O)OCc1ccc(NC(=O)[C@H](CCCNC(N)=O)NC(=O)[C@@H](NC(=O)CCCc2cn(CCCNC(=O)[C@H](CCCCNC(=O)CCC(=O)O[C@H]3CC[C@@]4(C)C(=CC[C@@H]5[C@@H]4CC[C@]4(C)C(c6cccnc6)=CC[C@@H]54)C3)NC(=O)[C@H](Cc3ccc(O)cc3)NC(=O)[C@H](Cc3ccccc3)NC(=O)CCC(=O)NCCCCCC(=O)N(CCCC[C@H](NC(=O)N[C@@H](CCC(=O)O)C(=O)O)C(=O)O)Cc3ccc(Br)cc3)nn2)C(C)C)cc1)C(C)C [13b] | 129.7 ± 1.7 | 128.5 ± 2.0 | >800
CC[C@H](C)[C@@H]([C@@H](CC(=O)N1CCC[C@H]1[C@H](OC)[C@@H](C)C(=O)N[C@H](C)[C@@H](O)c1ccccc1)OC)N(C)C(=O)[C@@H](NC(=O)[C@H](C(C)C)N(C)C(=O)OCc1ccc(NC(=O)[C@H](CCCNC(N)=O)NC(=O)[C@@H](NC(=O)CCCc2cn(CCCNC(=O)[C@H](CCCCNC(=O)CCC(=O)O[C@H]3CC[C@@]4(C)C(=CC[C@@H]5[C@@H]4CC[C@]4(C)C(c6cccnc6)=CC[C@@H]54)C3)NC(=O)[C@H](Cc3ccc(O)cc3)NC(=O)[C@H](Cc3ccccc3)NC(=O)CCC(=O)NCCCCCC(=O)N(CCCC[C@H](NC(=O)N[C@@H](CCC(=O)O)C(=O)O)C(=O)O)Cc3ccc(C(=O)O)cc3)nn2)C(C)C)cc1)C(C)C [13c] | 159.0 ± 2.9 | 192.2 ± 2.7 | >800
CC[C@H](C)[C@@H]([C@@H](CC(=O)N1CCC[C@H]1[C@H](OC)[C@@H](C)C(=O)N[C@H](C)[C@@H](O)c1ccccc1)OC)N(C)C(=O)[C@@H](NC(=O)[C@H](C(C)C)N(C)C(=O)OCc1ccc(NC(=O)[C@H](CCCNC(N)=O)NC(=O)[C@@H](NC(=O)CCCc2cn(CCCNC(=O)[C@H](CCCCNC(=O)CCC(=O)O[C@H]3CC[C@@]4(C)C(=CC[C@@H]5[C@@H]4CC[C@]4(C)C(c6cccnc6)=CC[C@@H]54)C3)NC(=O)[C@H](Cc3ccccc3)NC(=O)[C@H](Cc3ccccc3)NC(=O)CCC(=O)NCCCCCC(=O)N(CCCC[C@H](NC(=O)N[C@@H](CCC(=O)O)C(=O)O)C(=O)O)Cc3ccc(C(=O)O)cc3)nn2)C(C)C)cc1)C(C)C [13d] | 212.6 ± 3.8 | 191.8 ± 2.4 | >800
CC[C@H](C)[C@@H]([C@@H](CC(=O)N1CCC[C@H]1[C@H](OC)[C@@H](C)C(=O)N[C@H](C)[C@@H](O)c1ccccc1)OC)N(C)C(=O)[C@@H](NC(=O)[C@H](C(C)C)N(C)C(=O)OCc1ccc(NC(=O)[C@H](CCCNC(N)=O)NC(=O)[C@@H](NC(=O)CCCc2cn(CCCNC(=O)[C@H](CCCCNC(=O)c3ccc(N4C(=S)N(c5ccc(C#N)c(C(F)(F)F)c5)C(=O)C4(C)C)cc3F)NC(=O)[C@H](Cc3ccc(O)cc3)NC(=O)[C@H](Cc3ccccc3)NC(=O)CCC(=O)NCCCCCC(=O)N(CCCC[C@H](NC(=O)N[C@@H](CCC(=O)O)C(=O)O)C(=O)O)Cc3cccc(Cl)c3)nn2)C(C)C)cc1)C(C)C [compound 15] | 139.4 ± 19.3 | 170.2 ± 15.3 | >800
